# Binding of CDR-mutated scFvs to a peptide of the spike HR2 region

Data: MIT Lincoln Laboratory AlphaSeq set, Engelhart et al. 2022, doi:10.1038/s41597-022-01779-4, as distributed in FLAb.

Antigen: PDVDLGDISGINAS, a 14-residue peptide of the SARS-CoV-2 spike HR2 region.

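The parent was found by panning a naive human phage display library on the peptide. The library (AAYL51) carries one to three amino acid substitutions per variant, with no insertions or deletions. The assay is AlphaSeq: two haploid yeast populations carry antibody and antigen on their surface. After mating in shaken culture at 30 °C for 16 h, diploids were selected and their barcode pairs sequenced. Read counts were normalised to the haploid input and turned into Kd by a linear fit to BCL2-family pairs of known affinity, for each replicate. The assay was run in three technical replicates.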

Each scFv is VL, three GGGGS repeats, VH, as in the parent Ab-91, and differs from it in the CDRs of the heavy chain only.
VL: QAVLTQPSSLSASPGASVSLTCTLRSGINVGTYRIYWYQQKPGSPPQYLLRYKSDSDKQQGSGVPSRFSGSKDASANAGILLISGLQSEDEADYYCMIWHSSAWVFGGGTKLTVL
VH: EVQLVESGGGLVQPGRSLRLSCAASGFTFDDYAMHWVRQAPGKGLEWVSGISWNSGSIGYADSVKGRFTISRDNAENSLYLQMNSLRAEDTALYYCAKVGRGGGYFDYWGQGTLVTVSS

Substitutions are numbered in sequence along the VH above, starting at 1 (not Kabat). The Kd shown is the geometric mean over detected replicates; a lower Kd is a better binder. "no signal" marks a missing value. The strain was present, yet no cells mated with the target were sequenced in any replicate, which points to weak or no binding.

| changes | Kd | detected | empty controls |
|---|---|---|---|
| G56E+K65A | 1.0 µM | 2/3 | 2/9 |
| I58M+V99D+Y105D | 25 nM | 3/3 | 5/9 |
| A33H+V99I | 6.9 µM | 1/3 | 0/9 |
| G56I+G102K+Y105V | 6.0 µM | 2/3 | 2/9 |
| H35Y+G50H+G56Y | no signal | 0/3 | 0/9 |
| D30H+S55A+S63G | 16 µM | 2/3 | 0/9 |
| G26V+D62E+S63A | no signal | 0/3 | 1/9 |
| N54Q+V64D+G100P | no signal | 0/3 | 0/9 |
| S55T+S63R+G102T | 96 µM | 1/3 | 0/9 |
| G50L+S63E | no signal | 0/3 | 0/9 |
| T28K+Y60G | 73 µM | 2/3 | 4/9 |
| D30I+S55M+A61P | 30 µM | 2/3 | 2/9 |
| T28L+Y32G+G104S | no signal | 0/3 | 1/9 |
| S55K+Y60V+R101L | no signal | 0/3 | 0/9 |
| A33G+R101F+G103K | 340 µM | 1/3 | 2/9 |
| Y32N+A33T+Y108W | 36 µM | 1/3 | 1/9 |
| D31Y+W53Y+V99H | 13 nM | 3/3 | 1/9 |
| F29S+V64A+K65W | 100 nM | 1/3 | 0/9 |
| Y32W+G100R+Y105S | 1.5 mM | 1/3 | 1/9 |
| T28C+D31C+F106S | 9.0 nM | 3/3 | 0/9 |
| D31A+M34L+S52W | no signal | 0/3 | 0/9 |
| D30E+S55Y+Y105M | 190 µM | 1/3 | 2/9 |
| Y32K+G50Q+V99I | 51 µM | 1/3 | 2/9 |
| D30H+N54A+F106K | 15 µM | 3/3 | 1/9 |
| M34I+G102A | 140 µM | 3/3 | 2/9 |

Continued, with the values leading:

| Kd | detected | empty controls | changes |
|---|---|---|---|
| 1.1 µM | 1/3 | 1/9 | M34I+S57V+G59A |
| 14 nM | 3/3 | 3/9 | S57Q+Y105V+Y108L |
| 41 µM | 2/3 | 3/9 | G26T+M34C+S52I |
| no signal | 0/3 | 0/9 | G56S+R101A+G103T |
| no signal | 0/3 | 4/9 | D31S+I51H+D107K |
| 690 µM | 1/3 | 0/9 | I51G+K65Q+G102S |
| no signal | 0/3 | 0/9 | H35E+G59Q+F106T |
| 25 µM | 2/3 | 0/9 | D31F+V64M+G100T |
| 310 nM | 3/3 | 9/9 | Y32E+N54K |
| no signal | 0/3 | 0/9 | G26D+S55K+S57A |
| 130 µM | 3/3 | 4/9 | D31H+H35T+Y60W |
| 11 nM | 3/3 | 0/9 | D30T+G56V |
| 180 µM | 1/3 | 4/9 | F27K+F29D+A33W |
| no signal | 0/3 | 0/9 | D30M+S55D+G103M |
| no signal | 0/3 | 0/9 | M34I+G104M |
| 830 nM | 3/3 | 2/9 | G26E+T28A+Y108C |
| no signal | 0/3 | 0/9 | I51Q+G56I+V99G |
| 49 µM | 1/3 | 0/9 | W53F+N54K+S55C |
| 4.6 µM | 1/3 | 0/9 | G50V+I51T+A61F |
| 69 nM | 1/3 | 0/9 | T28H+D62M+R101F |
| 120 µM | 1/3 | 4/9 | I51Q+A61W+V64L |
| 110 µM | 1/3 | 1/9 | D31G+Y32D+S52R |
| no signal | 0/3 | 0/9 | T28P+D30Y+V64C |
| 370 µM | 2/3 | 3/9 | A61D+S63W+K65F |
| no signal | 0/3 | 2/9 | F27L+W53P+D107K |

The first 4 entries again:

changes	Kd	detected	empty controls
G56E+K65A	1.0 µM	2/3	2/9
I58M+V99D+Y105D	25 nM	3/3	5/9
A33H+V99I	6.9 µM	1/3	0/9
G56I+G102K+Y105V	6.0 µM	2/3	2/9

As a blank, each scFv also met three strains without target: over library AAYL51, 21% of these pairings were detected, typically at 34 µM and seldom below 1.8 µM. For each scFv, signals with the empty controls are counted beside the result.